# Experimental data from patent US11319331B2, “Probe for selective detection of hypochlorous acid (HOCl) under physiological condition, and related methods” (Council of Scientific & Industrial Research, priority 2017, dated 2022).
# What was measured:
# [1] = luminescence spectra at different pH
# RAW 264.7 cells = test: MTT assay, in vitro cytotoxicity / cell viability
substance,measurement,setting,value
"E)-4-(2-(5,5-difluoro-1,7,9-trimethyl-10-phenyl-5H-5λ^4,6λ^4-dipyrrolo[1,2-c:2′,1′-f][1,3,2]diazaborinin-3-yl)vinyl)benzene-1,2-diol [SF-1]",pH range in which stable in aqueous solution,[1],4-9 pH
same,toxicity towards RAW 264.7 macrophage cells (MTT),RAW 264.7 cells,non-toxic
